Molecular target: kappa opioid receptor (Cavia porcellus, UniProt P41144)
Assay: kappa opioid receptor binding, tritiated etorphine, brain homogenates
Conditions: in vitro receptor binding assay; result in words

By UniProt entry, the sequences of proteins in these tests, tags left out. Where a name states a change or a piece, a line headed by the entry shows the natural chain unless it says otherwise.
UniProt P41144: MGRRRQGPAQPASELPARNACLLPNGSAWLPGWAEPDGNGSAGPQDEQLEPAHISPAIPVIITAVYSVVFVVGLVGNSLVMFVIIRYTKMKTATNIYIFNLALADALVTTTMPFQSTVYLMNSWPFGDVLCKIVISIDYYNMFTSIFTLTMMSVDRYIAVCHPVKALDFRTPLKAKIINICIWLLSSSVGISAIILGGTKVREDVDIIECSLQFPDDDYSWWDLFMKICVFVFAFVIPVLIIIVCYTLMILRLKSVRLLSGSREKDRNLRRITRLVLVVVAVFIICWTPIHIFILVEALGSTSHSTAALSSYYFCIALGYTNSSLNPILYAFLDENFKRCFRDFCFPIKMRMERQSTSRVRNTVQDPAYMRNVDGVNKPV

CO[C@@H]1CCC[C@@H](N2CCCC2)[C@@H]1N(C)C(=O)Cc1cccc2occc12 (racemic)
selectivity for the kappa versus mu opioid receptor: particularly high selectivity

— patent publication EP0552386A1, “2-Amino-3 or 6-methoxycyclohexyl amide derivatives” (dated 1993)
